Data on one substance can be found in article PMC11602913, “Lead-it-EAZY! GMP-compliant production of [^212Pb]Pb-PSC-PEG2-TOC” (EJNMMI Radiopharmacy and Chemistry, 2024).

The test system of this data set is neuroendocrine tumours (NET). Nature of the data set: Individual patient application of the 212Pb-labelled peptide. The format is in vivo, human. Particulars: patients, doses of 1–1.5 MBq/kg. The method, then: The precursor concentration (0.1 µg/MBq) results in a maximum mass of 50 µg (31.7 nmol) for 500 MBq ^212Pb-labelled peptide, which is half to the mass used for routine ^177Lu-preparations with 5000 MBq (Brogsitter et al. [2017]). At this concentration, any ^212Bi generated during the reaction time by free ^212Pb is rebound by the precursor (Li et al. [2023]). Typically, doses of 1–1.5 MBq/kg were administered per patient. […] The detailed results of patient treatments will be discussed in a further publication.

For the substance “[^212Pb]Pb-PSC-PEG2-TOC [[^212Pb]Pb-VMT-α-NET]”, the adverse effects entry is given as “only weak adverse effects”.
